The values below come from ChEMBL document CHEMBL1138638, “Azepinone as a conformational constraint in the design of kappa-opioid receptor agonists” (Bioorg Med Chem Lett, 2004).

Sequences of proteins named here, by UniProt entry; tags and fusion partners are left off.
UniProt P41143, whole entry, looked up: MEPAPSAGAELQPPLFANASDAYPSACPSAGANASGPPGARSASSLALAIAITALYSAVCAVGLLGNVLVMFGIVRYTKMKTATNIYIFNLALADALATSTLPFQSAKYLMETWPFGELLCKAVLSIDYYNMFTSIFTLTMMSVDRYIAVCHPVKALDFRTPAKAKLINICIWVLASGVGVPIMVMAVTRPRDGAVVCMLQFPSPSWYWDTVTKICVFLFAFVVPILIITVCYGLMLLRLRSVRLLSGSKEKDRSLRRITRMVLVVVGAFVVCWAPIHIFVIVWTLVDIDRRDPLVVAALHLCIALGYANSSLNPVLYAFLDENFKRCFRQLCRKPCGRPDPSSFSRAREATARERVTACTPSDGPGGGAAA
UniProt P35372, whole entry, looked up: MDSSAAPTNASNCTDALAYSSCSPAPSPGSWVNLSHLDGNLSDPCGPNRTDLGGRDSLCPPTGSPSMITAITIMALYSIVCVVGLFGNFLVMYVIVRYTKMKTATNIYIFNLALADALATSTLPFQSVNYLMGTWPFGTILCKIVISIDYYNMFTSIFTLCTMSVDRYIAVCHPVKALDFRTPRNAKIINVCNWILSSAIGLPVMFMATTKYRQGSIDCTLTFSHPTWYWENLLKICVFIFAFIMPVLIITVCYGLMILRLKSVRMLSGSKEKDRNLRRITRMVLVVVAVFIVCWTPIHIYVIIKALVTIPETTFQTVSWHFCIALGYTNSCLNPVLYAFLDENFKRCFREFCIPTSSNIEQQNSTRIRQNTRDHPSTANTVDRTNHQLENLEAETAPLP

The test system of one test is Mus musculus. As to the kind of experiment: Effective dose required to inhibit acetic acid induced writhing in mouse when administered orally.
Test [1] deals with Delta-type opioid receptor (Homo sapiens, UniProt P41143). Briefly: Binding affinity for human Delta opioid receptor.
For a further test, the target named is Mu-type opioid receptor (Homo sapiens, UniProt P35372). As to the kind of experiment: Binding affinity for human Mu opioid receptor.

Regarding `CN(C(=O)Cc1ccc(Cl)c(Cl)c1)C(CN1CCCC1)c1ccccc1` (stereo not drawn), in the test with Mus musculus, the ED50 was 0.17 mg/kg. For the same compound, the Ki in test [1] came out at 0.024 µM; at Mu-type opioid receptor, 0.053 µM.
